The values that follow come from PMC10631261 (Chemical Science, 2023).

Amino acid sequences for entries named in this document (tags omitted). Residues count along the entry.
UniProt Q9GZT9, 181-426: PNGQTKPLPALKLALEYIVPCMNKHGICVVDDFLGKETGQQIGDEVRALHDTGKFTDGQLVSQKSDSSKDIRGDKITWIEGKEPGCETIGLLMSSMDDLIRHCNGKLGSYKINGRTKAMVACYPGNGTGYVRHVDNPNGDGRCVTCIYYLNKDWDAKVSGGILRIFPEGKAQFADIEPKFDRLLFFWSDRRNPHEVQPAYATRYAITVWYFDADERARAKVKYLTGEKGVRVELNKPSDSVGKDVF

This assay addresses PHD2 (Homo sapiens, UniProt Q9GZT9). In words: biochemical. Here is the method: 3. Biochemical procedures
Protein production and purification
PAGE analysis) according to established procedures.
FIH, PHD2, AspH, JMJD5 and KDM4A inhibition assays
The in vitro FIH,1, 2 PHD2,1 AspH,38 JMJD536 and KDM4A39 inhibition assays were performed as […]
KDM4A). Synthetic peptide substrates were used: HIF-1α C-terminal transactivation domain fragment […]
H3Lys9 bearing three methyl groups at the N ϵ position, H3Lys4 substituted by an Ala and H3Lys14 substituted by an Ile residue) for KDM4A.39 Peptides were prepared as C-terminal amides by GL Biochem (Shanghai) Ltd. Peptide hydroxylation in the case of FIH, PHD2, AspH and JMJD5 (+16 Da mass shift) or peptide demethylation in the case of KDM4A ( -14 Da mass shift) was monitored by SPE-MS. […]

Consider `O=C(O)Cc1cs/c(=N\C(=O)CNC(=O)c2ccccc2)n1O` [compound 16], for which the half-inhibitory concentration (IC50) (commonly the midpoint of a concentration-inhibition curve) came out at 1.2 ± 0.2 µM.
